Bioassay records: PubChem, National Center for Advancing Translational Sciences (NCATS)
Sampled rows, rich in hits. Any-hit rate of the full collection: about 0.78%.
RXFP1 antagonist = antagonists of human relaxin receptor RXFP1; Q9HBX9; activity change, negative = inhibition, % at 57.5 µM; HEK293-RXFP1, relaxin-stimulated cAMP HTRF, 30 min; stronger effect = lower value; hit rate 0.59% among 350,000;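 active = activity change of -60% or lower, but not beyond a set lower limit; inconclusive = change between -60% and -40%, or beyond the set limit; inactive = change above -40%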; note: % is set by controls: 0 for no effect and ±100 for the full control effect
TCR activator = T cell receptor activation; 330,000 tested, under 10 active; Potency, µM (top dose mostly 9.22 µM), for the others: at the highest dose activation of IL-2 secretion, usual class: activators; primary human leukocytes, anti-CD3, IL-2 HTRF, 48 h; note: % of control where 0% means no effect
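1) Mix primary human leukocytes, a-CD3 beads and compound. 2) Incubate 48 hr. 3) Add HTRF IL-2 reagents (a-IL-2-K, a-IL-2-d2).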
miR-21 reporter = raises the signal of a miR-21 reporter | HeLa miR-21 FLuc reporter, luciferase, 48 h | Potency, µM (doses to about 38.3 µM), for the others: at the highest dose reporter change, positive = more light | 340,000 tested, under 10 active | AID 2288; active = well fitted rising curve with a large enough effect; inconclusive = small, poorly fitted or top-dose-only effect; inactive = no such curve, though single readings can be large or run the other way;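 also: % of control where 0% means no effect; miR-21 action dims this reporter so a rising signal means less miR-21 action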
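HeLa cells stably expressing CMV-driven firefly luciferase with a downstream miR-21 binding sequence, endogenously expressing miR-21, were treated with titrations (up to about 40uM final) for 48 hours at 37 degree Celsius. Luciferase luminescence was read after lysis.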
IL-2 act = activates IL-2 in a cell-based reporter assay; hit rate 0.065% among 360,000; AID 652025; activation, % (series mostly up to about 46 µM); IL-2 activation reporter assay, cell-based qHTS; stimulated with anti-CD3/CD4/CD28 beads; in transgenic mouse T cells; in the data active = activation above about 50%; inconclusive = mostly about 30% to 49%; note: 0% is about no effect
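Using fluorescent plate cytometry, EGFP and DsRed are detected in transgenic mouse T cells stimulated 18 h at 37 degrees C with antibody-coated beads after 60 min compound pretreatment.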
RXFP1 agonist = RXFP1 (human) receptor agonism. HEK293T-RXFP1 cAMP TR-FRET, 30 min; response scale: percent of porcine relaxin response, buffer zero. Potency, µM (highest dose often 57.5 µM), for inactives: top-dose activation, most hits filed as activators. hit rate 0.3% among 370,000; note: potency is the fitted concentration of half-maximal effect; % is set by controls: 0 for no effect and ±100 for the full control effect; nearly all actives have a fitted effect of over 60% in size
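cAMP rise read by TR-FRET after 30 min, 37C compound exposure (up to 58 uM) in RXFP1-transfected HEK293 cells with Ro 20174 present. EC50 from Hill-equation fits, with 29 nM porcine relaxin as 100% and buffer as basal.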
PINK1 modulator = changes PINK1 expression | AID 624263 | PINK1 immunofluorescence, high-content cytometry, 24 h | Potency, µM (titrated, usually from 76.6 µM), without a hit: at the top dose activation (PINK1 increase), usual class: activators | hit rate 0.2% among 410,000; active = well fitted activation curve with a large enough effect; inconclusive = small, poorly fitted or top-dose-only effect; cell line not stated here; note: potency is the fitted concentration of half-maximal effect; % of control where 0% means no effect; nearly all actives have a fitted effect of over 65% in size
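Decision-based qHTS: stable cells, 24 h exposure to five compound concentrations, CCCP as control. Fixed cells stained for PINK1 plus nuclear, mitochondrial and cell markers, cytometer read.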
* = called active by the depositor; ? = inconclusive; nt = no result given; [ ] = remark or other dose. Unless noted, calls come from the whole dose curve; as a rule, active = well fitted curve in the direction sought with a large enough effect; inconclusive = small, poorly fitted or top-dose-only effect, or another doubt; inactive = no such curve, though single readings can be large; an effect the other way counts as inactive or inconclusive.

| cpd | RXFP1 antagonist | TCR activator | miR-21 reporter | IL-2 act | RXFP1 agonist | PINK1 modulator | molecule |
| --- | --- | --- | --- | --- | --- | --- | --- |
| 1 | -71.6* | -15.5% | 6.9% | 2.3 | 5.0% | -2.0% | O=S(=O)(Nc1c(S(=O)(=O)c2ccccc2)c2nc3ccccc3nc2n1C1CCCCC1)c1ccccc1 |
| 2 | -72.5* | -3.4% | -21.8% | -2.9 | 0.6% | 1.6% | Cc1nc(SCc2ccc([N+](=O)[O-])cc2)n[nH]1 |
| 3 | -82.8* | 5.0% | ? | -5.1 | 0.1% | -4.0% | CN(C)c1ccc(-n2cccc2/C=C/[N+](=O)[O-])cc1 |
| 4 | -62.6* | 3.3% | nt | -6.3 | nt | -6.8% | CN(C)CCCN1c2ccccc2Sc2ccc3ccccc3c21 |
| 5 | nt | nt | nt | nt | nt | 0.1% | C[C@@H]1CN(Cc2ccc3c(c2)CN(Cc2coc4ccccc4c2=O)CCO3)C[C@H](C)O1 |
| 6 | 1.4 | -3.8% | -2.4% | 0.4 | -1.2% | 1.5% | O=C(CSc1n[nH]c(=O)n1C1CC1)Nc1ccc(Cl)c(Cl)c1 |
| 7 | -78.2* | 3.2% | nt | 0.7 | nt | 1.5% | O=C(CSc1n[nH]c(=O)n1C1CC1)Nc1ccc(F)c(Cl)c1 |
| 8 | nt | nt | nt | nt | nt | -0.4% | COc1ccc2c(c1)-c1nc(-n3ncc(C(=O)NCc4cccnc4)c3C3CC3)ncc1CC2 |
| 9 | -14.5 | -0.2%[46.1 µM] | -7.3% | 1.8 | -0.1% | 14.1µM* | Cc1cccc(NC(=O)c2ccc(NCCc3ccccc3)c([N+](=O)[O-])c2)c1 |
| 10 | -6.9 | 5.0%[46.1 µM] | -33.1% | 0.3 | -0.5% | 6.6% | Cc1ccc(NC(=O)c2ccc(NCCN)c([N+](=O)[O-])c2)cc1 |
| 11 | -67.6* | -1.4% | nt | -0.2 | nt | -2.8% | CC1(C(=O)N/N=C/c2c(F)c(F)c(F)c(F)c2F)CC1(Cl)Cl (stereo not given) |
| 12 | 5.5 | -44.9% | ? | -3.6 | 1.7% | 12.6µM* | O=c1[nH]c(=O)n(Cc2ccco2)c2c1C(C(F)(F)F)(C(F)(F)F)N=C(c1ccc(F)cc1)N2 |
| 13 | -63.7* | 1.8% | nt | -6.6 | 1.4% | -7.4% | Cc1nnnn1/C(=C\c1ccccc1)C(=O)OCC(=O)Nc1ccc(Cl)cc1F |
| 14 | -60.1* | 3.8% | -0.5% | -1.3 | 18.6% | -1.8% | COCC(C)N1C(=O)Cc2c1nc(N)c1c(N)nc(N3CCN(c4ccccc4F)CC3)c(C#N)c21 (stereo not given) |
| 15 | nt | nt | nt | nt | nt | 0.2% | O=C(Cc1nc2ccccc2[nH]1)N1CCC(n2c(C3CCC3)nc3cccnc32)CC1 |
| 16 | nt | nt | nt | nt | nt | -0.4% | Cc1oc(-c2ccccc2NC(=O)c2cccnc2)nc1CNC(=O)c1ccc(N(C)C)cc1 |
| 17 | -5.3 | -0.8% | ? | -4.5 | 0.4% | 12.6µM* | C[n+]1c2n(c3ccccc31)N=C(c1ccc(-c3ccccc3)cc1)CS2 |
| 18 | -10.9 | -0.7% | ? | -3.4 | 4.8% | ? | C[n+]1c2n(c3ccccc31)N=C(c1ccccc1)CS2 |
| 19 | -3.8 | nt | nt | nt | nt | nt | CCN(CC)C(=O)C1CN2CCc3cc(OC)c(OC)cc3C2CC1OC(C)=O (stereo not given) |
| 20 | nt | nt | 2.4% | nt | 25.1µM* | 1.2% | COc1cc(NC(=O)Cn2c(=O)n(Cc3ccccc3Cl)c(=O)c3cc(OC)c(OC)cc32)cc(OC)c1 |

(further entries)
| cpd | RXFP1 antagonist | TCR activator | miR-21 reporter | IL-2 act | RXFP1 agonist | PINK1 modulator | molecule |
| --- | --- | --- | --- | --- | --- | --- | --- |
| 21 | 10.3 | -4.8% | ? | -3.6 | 25.1µM* | 0.1% | CCCCn1c(=O)[nH]c(=O)c2c1nc(Cn1ncc(Cl)c(Cl)c1=O)n2CCC |
| 22 | -1.7 | -2.8% | 14.2% | -3.4 | 2.6% | -1.2% | CC1CN(c2ccc([N+](=O)[O-])c(NCCOc3ccccc3)c2)CC(C)N1 (stereo not given) |
| 23 | -96.7* | nt | ? | -0.6 | 1.5% | -2.5% | CC1CN(c2ccc([N+](=O)[O-])c(NCCOc3ccc(Cl)cc3)c2)CC(C)N1 (stereo not given) |
| 24 | -66.8* | -2.1%[46.1 µM] | ? | -3.0 | 0.9% | -3.8% | C=C(CCC(=O)c1ccccc1)C(=O)c1ccccc1 |
| 25 | -5.4 | -6.0% | -0.6% | 0.9 | 1.6% | 1.1% | O=C(CCCCCCCC(=O)c1ccccc1)c1ccccc1 |
| 26 | 18.2 | -0.1% | 1.7% | 1.5 | 14.1µM* | -0.5% | CCOC(=O)N1CCN(S(=O)(=O)c2c(C)nc3scc(C)n3c2=O)CC1 |
| 27 | nt | nt | nt | nt | nt | 1.4% | Cc1ncc2c(c1CNS(=O)(=O)N(C)C)CCN(C(=O)c1[nH]c3ccc(Cl)cc3c1C)C2 |
| 28 | -1.0 | 5.4% | 1.4% | -2.1 | -0.3% | 15.3% | CCOC(=O)c1nnc(-c2ccc(C)cc2)nc1Sc1ccc(Cl)cc1 |
| 29 | -68.1* | -2.6% | -28.8% | -1.9 | 0.2% | -0.6% | CCOC(=O)c1nnc(-c2ccc(C)cc2)nc1N1CCSCC1 |
| 30 | -4.4 | 0.5%[46.1 µM] | 27.9% | -3.3 | -1.1% | ? | CC(C)CCNC(=S)Nc1ccc([N+](=O)[O-])cc1 |
| 31 | -4.0 | -8.6%[46.1 µM] | -11.1% | -0.2 | -0.1% | 14.1µM* | CC(C)OC(=O)c1cc(NC(=S)Nc2ccc([N+](=O)[O-])cc2)cc(C(=O)OC(C)C)c1 |
| 32 | 2.1 | -2.4%[46.1 µM] | 1.4% | -0.3 | 4.7% | 1.5% | CCCC(C)NC(=O)c1cc(C(=O)OC)cc([N+](=O)[O-])c1 (stereo not given) |
| 33 | -70.9* | nt | nt | nt | nt | nt | CC(C)OC(=O)c1cc(C(=O)OC(C)C)cc([N+](=O)[O-])c1 |
| 34 | -1.0 | 4.6% | -30.6% | 0.0 | 0.0% | 44.7µM* | Cc1cccc(/N=C/c2sc3ccccc3c2O)n1 |
| 35 | -5.6 | nt | -9.0% | -2.8 | 0.3% | 8.91µM* | COC(=O)c1c(N)c(C#N)c2n1CCCCC2 |
| 36 | 2.1 | 2.6% | -14.8% | 6.5 | -1.4% | -5.7%[38.3 µM] | N#Cc1c(N)c(C(=O)c2ccccc2)n2c1CCC2 |
| 37 | -72.2* | -0.4% | nt | -7.6 | nt | -5.8% | O=C(C(=Cc1ccccc1)CN1CCCCC1)c1ccccc1 |
| 38 | -65.0* | 1.4% | nt | -0.3 | nt | -4.4% | O=C(C=Cc1ccccn1)c1ccccc1 |
| 39 | -113.5* | 3.7% | nt | -5.4 | nt | -6.2% | CN(C)CCC(=O)N1C/C(=C/c2ccccc2)C(=O)/C(=C\c2ccccc2)C1 |
| 40 | nt | nt | nt | nt | nt | 0.5% | Cc1ccc(CN2CCOc3ccc(CN4CCC(O)(c5cccnc5)CC4)cc3C2)cc1C |

Next part.
| cpd | RXFP1 antagonist | TCR activator | miR-21 reporter | IL-2 act | RXFP1 agonist | PINK1 modulator | molecule |
| --- | --- | --- | --- | --- | --- | --- | --- |
| 41 | nt | nt | nt | nt | nt | 0.4% | COc1cc(C)c(CN2C[C@H](Sc3ccccn3)C[C@H]2C(=O)N(C)C)cc1C |
| 42 | -77.8* | nt | -36.4% | -1.1 | 0.1% | 14.0% | Cc1cccc(Nc2nc(-c3ccc(F)cc3)cs2)n1 |
| 43 | -111.0* | 2.2% | -35.1% | -0.8 | 0.7% | -2.8% | Cc1cc(/C=C2\SC(=S)NC2=O)c(C)[nH]1 |
| 44 | nt | nt | nt | nt | nt | 0.7% | OC(c1ccc2c(c1)CN(Cc1cccn1-c1ncccn1)CCO2)C1CCCCC1 (stereo not given) |
| 45 | -118.9* | 0.2% | -11.9% | -0.1 | 0.0% | -1.9% | Cc1[nH]c(=S)c(C#N)c(C)c1CCC#N |
| 46 | nt | nt | nt | -1.1 | nt | 35.5µM* | CC(C)(C)Cc1c(-c2ccc(C#N)cc2)nc2c(Cl)cc(C(F)(F)F)cn12 |
| 47 | nt | nt | nt | 0.6 | nt | 10.1% | COc1ccccc1Cc1c(-c2ccc(C#N)cc2)nc2c(Cl)cc(C(F)(F)F)cn12 |

Compound profiles, as listed above.
Profile of O=C(CCCCCCCC(=O)c1ccccc1)c1ccccc1 = RXFP1 antagonist: -5.4; TCR activator: -6.0%; miR-21 reporter: -0.6%; IL-2 act: 0.9; RXFP1 agonist: 1.6%; PINK1 modulator: 1.1%
Profile of Cc1[nH]c(=S)c(C#N)c(C)c1CCC#N = RXFP1 antagonist: -118.9*; TCR activator: 0.2%; miR-21 reporter: -11.9%; IL-2 act: -0.1; RXFP1 agonist: 0.0%; PINK1 modulator: -1.9%
Profile of CCN(CC)C(=O)C1CN2CCc3cc(OC)c(OC)cc3C2CC1OC(C)=O (stereo not given) = RXFP1 antagonist: -3.8; TCR activator: nt; miR-21 reporter: nt; IL-2 act: nt; RXFP1 agonist: nt; PINK1 modulator: nt
